What is called IC50 is the concentration that inhibits the measured activity by half. As usually defined, the Ki is a dissociation constant, usually derived from enzyme kinetics or from competition with a known ligand. A high value points to lower affinity.

Each structure is given as a SMILES string.

This note sets out measurements from patent publication US5597804A, “N-sulfonylarginine keto-amide compounds” (Corvas International, Inc., priority 1993, dated 1997).

Assay [1] concerns the target T1, human α-thrombin (Homo sapiens, UniProt P00734). Nature of the assay: Thrombin assay, IC50 determination with substrate Pefachrome t-PA. The note with it: Table I, 30 minutes incubation at room temperature. Here is the method:
(§1) The ability of the compounds of the present invention to act as inhibitors of thrombin catalytic activity was assessed by determining their inhibition constant, Ki, and the concentration which inhibited enzyme activity by 50%, IC50, against thrombin.
(§2) Enzyme activity was determined using the chromogenic substrates, S2266 (H-D-valyl-L-leucyl-L-arginine-p-nitroaniline, obtained from Kabi Diagnostica) or Pefachrome t-PA (CH3 SO2 -D-hexahydrotyrosine-glycyl-L-Arginine-p-nitroaniline, obtained from Pentapharm Ltd.). The subtrates were reconstituted in deionized water prior to use. Purified human α-thrombin was obtained from Enzyme Research Laboratories, Inc. The buffer used for all assays was HBSA (10 mM HEPES, pH 7.5, 150 mM sodium chloride, 0.1% bovine serum albumin).
IC50 determinations were conducted where HBSA (50 mL), α-thrombin (50 μl) and inhibitor (50 μl) (covering a broad concentration range), were combined in appropriate wells and incubated for 30 minutes at room temperature prior to the addition of substrate Pefachrome-t-PA (50 μl). The initial velocity of Pefachrome t-PA hydrolysis was measured by the change in absorbance at 405 nm using a Thermo Max® Kinetic Microplate Reader over a 5 minute period in which less than 5% of the added substrate was utilized. The concentration of added inhibitor which caused a 50% decrease in the initial rate of hydrolysis was defined as the IC50 value.

For assay [2], the target named is T1, human α-thrombin. The assay is described as follows: Thrombin assay, Ki determination with chromogenic substrate S-2266. As for the experimental part: as §1, §2
The assay for Ki determinations was conducted by combining in appropriate wells of a Corning microtiter plate, 50 mL of HBSA, 50 mL of the test compound at a specified concentration diluted in HBSA (or HBSA alone for Vo (uninhibited velocity) measurement), and 50 mL of the chromogenic substrate S-2266 at a specified concentration diluted in HBSA. At time zero, 50 mL of α-thrombin diluted in HBSA, was added to the wells yielding a final concentration of 0.5 nM in a total volume of 200 mL. Velocities of S-2266 substrate hydrolysis which occurred over a designated time period was measured by the change in absorbance at 405 nm using a Thermo Max® Kinetic Microplate Reader.
The extent of substrate hydrolysis was less than 5% over the course of this assay. 2) For test compounds showing rapid, reversible kinetics of inhibition, Ki values were determied from initial velocities using the relationships developed by Dixon, M., Biochem. J., 129: 197 (1972).

Assay [3] relates to Harlan Sprague Dawley rats. Nature of the assay: Extracorporeal shunt model in rats. The note with it: mean ± S.E.M. (n = 6). The text has this:
Extracorporeal Shunt Model in Rats
This is one of the most common and generally used models in the evaluation of antithrombotic compounds. Smith, J. R. and White, A. M. Br. J. Pharmacol., 77: 29-38 (1982). In this model a localized clot made up of primarily fibrin with some platelet and macrophage involvement (Shand, R. A. and Smith, J. R. and Wallis, R. B. Thromb. Res., 36: 223-232 (1984)), is formed on an artificial thrombogenic surface (typically a segment of silk or cotton thread) contained in a sialstic chamber which is part of an exteriorized shunt between the carotid artery and jugular vein.
The effect of the compound of Example 8 on the formation of a thrombus on the thrombogenic surface was measured using clot weight as the primary end point in the model.
Male Harlan Sprague Dawley rats (420-450 g) were acclimated at least 72 hours prior to use. The animals were fasted for 12 hours prior to surgery with free access to water. The animals were anesthetized with a sodium pentobarbital (Nembutal) given intraperitoneally at a dose of 50 mg/kg body weight and placed on a isothermal pad to maintain body temperature. The level of anesthesia was monitored every 15 minutes by: neuro-response to a tail pinch, respiration and core temperature. The desired depth of surgical anesthesia was maintained by administering subsequent doses (5 mg/kg) intravenously. The left femoral artery was catheterized using standard procedures for blood pressure monitoring and blood sampling, with polyethylene tubing (PE50). The left and right femoral veins were catheterized with PE50 tubing for delivery of anethestic and test compounds, respectively.
Following surgery the animals were randomized in either a control (saline infusion) or treatment group (Compound of Example 8) with at least 6 animals per group per dose. […] Blood pressure, heart rate core temperature and respiration were monitored continuously. […] The clot was immediately weighed and recorded. […]

Assay [4] concerns Harlan Sprague Dawley rats. Nature of the assay: Rat model of FeCl3-induced platelet-dependent arterial thrombosis. Conditions: for Clot size: [isolated clot/(intact segment-empty segment)] × 100, mean ± S.E.M. (n = 6); for Incidence of Occlusion: zero blood flow in carotid segment, 60 minutes observation. From the text: Rat model of FeCl3 -induced platelet-dependent arterial thrombosis
This is a well characterized model of platelet dependent, arterial thrombosis which has been used in the evaluation potential antithrombotic compounds such as direct thrombin inhibitors. Kurz, K. D., Main, B. W., and Sandusky, G. E., Thromb. Res., 60: 269-280 (1990). […] In this model a platelet-rich, occlusive thrombus is formed in a segment of the rat carotid artery treated with a fresh solution of FeCl3 absorbed to a piece of filter paper. The FeCl3 is thought to diffuse into the treated segment of artery and causes de-endothelialization resulting in thrombus formation. The effect of a test compound on the incidence of occlusive thrombus formation following the application of the FeCl3 is monitored by ultrasonic flowtometry and is used as the primary end point. The use of flowtometry is a modification of the original procedure in which thermal detection of clot formation was employed. Kurz, K. D., Main, B. W., and Sandusky, G. E., Thromb. Res., 60: 269-280 (1990).
Male Harlan Sprague Dawley rats (420-450 g) were acclimated at least 72 hours prior to use and fasted for 12 hours prior to surgery with free access to water. The animals were prepared, anesthetized with Nembutal with catheters for blood pressure monitoring, drug and anesthesia delivery being implanted as described above. The left carotid artery was isolated by making a midline cervical incision followed by blunt dissection and spreading techniques to separate a 2 cm segment of the vessel from the carotid sheath. A silk suture is inserted under the proximal and distal ends of the isolated vessel to provide clearance for the placement of a ultrasonic flow probe (Transonic) around the proximal end of the vessel. The probe is then secured with a stationary arm.
Following surgery the animals were randomized in either a control (saline infusion) or treatment group with test compound (Compound of Example 8) with at least 6 animals per group per dose. The test compounds were administered as described above after placement of the flow probe and stabilization of the preparation for a period of 30 min prior to the thrombogenic stimulus. At t=0, a 3 mm diameter piece of filter paper (Whatman #3) soaked with […] of a 35% solution of fresh FeCl3 (made up in water) was applied the segment of isolated carotid artery distal to the flow probe. Blood pressure, blood flow, heart rate, and respiration were monitored for 60 minutes.
The incidence of occlusion (defined as the attainment of zero blood flow) was recorded as the primary end point. Following the 60 minute observation period the flow probe was removed and the area cleared of all excess fluid. The distal and proximal sutures were tied off and arterial clamps placed on the far proximal and distal ends of the segment. The isolated segment was cut out, blotted dry on filter paper and weighed. The segment was re-weighed following removal of the clot and the difference recorded as total % clot weight. The animals were euthanized as described above.

Where [5] appears, read: Group1: 0.5 mg/kg i.v. bolus + 20 μg/kg/min i.v. infusion.
Where [6] appears, read: Group2: 0.5 mg/kg i.v. bolus + 50 μg/kg/min i.v. infusion.
Where [7] appears, read: Group3: 0.5 mg/kg i.v. bolus + 100 μg/kg/min i.v. infusion.
[8] abbreviates: Table I, substrate S-2266, HBSA pH 7.5, 0.5 nM α-thrombin.

In the case of `CS(=O)(=O)CC[C@H](NS(=O)(=O)c1ccc2ccccc2c1)C(=O)N1CCC[C@H]1C(=O)N[C@@H](CCCNC(=N)N)C(=O)C(=O)NCCc1ccccc1`, the half-maximal inhibitory concentration (IC50) against human α-thrombin [1] came out at 0.42 nM.
`CC(C)(C)OC(=O)N[C@@H](CC(=O)O)C(=O)N1CCC[C@H]1C(=O)N[C@@H](CCCNC(=N)N)C(=O)C(=O)NCCCc1ccccc1` gave a Ki on human α-thrombin [2] (human α-thrombin) of 5.5 nM. On human α-thrombin [1], the IC50 was found to be 6.5 nM.
Regarding `CS(=O)(=O)CC[C@H](NS(=O)(=O)Cc1ccccc1)C(=O)N1CCC[C@H]1C(=O)N[C@@H](CCCNC(=N)N)C(=O)C(=O)NCCc1ccccc1`, the IC50 against human α-thrombin [1] is 0.37 nM.
`CCCC(CCC)C(=O)N[C@@H](CC(=O)O)C(=O)N1CCC[C@H]1C(=O)N[C@@H](CCCNC(=N)N)C(=O)C(=O)NCCc1ccccc1`: the Ki at human α-thrombin [2] (human α-thrombin) turned out to be 1.5 nM. Besides, the 50% inhibitory concentration (IC50) on human α-thrombin [1] is 0.7 nM.
With `CC(C)(C)OC(=O)N[C@@H](CC(=O)O)C(=O)N1CCC[C@H]1C(=O)N[C@@H](CCCNC(=N)N)C(=O)C(=O)NCCc1ccccc1`, the “Clot size” value in assay [3] (setting [5]) was found to be 38.37 ± 4.49 mg; in assay [3] (setting [6]) it was 17.22 ± 1.79 mg; in assay [3] (setting [7]), 10.20 ± 0.636 mg; in assay [4] (setting [5]) it was 40.73 ± 8.0%; in assay [4] (setting [6]) it was 12.56 ± 5.96%; in assay [4] (setting [7]), 4.46 ± 3.49%. Further, the “Incidence of Occlusion” value in assay [4] (setting [5]) is 5/6; in assay [4] (setting [6]), 1/6; in assay [4] (setting [7]), 0/6. The compound further had an inhibition constant Ki at human α-thrombin [2] (setting [8]) of 11 nM. Also, at human α-thrombin [1], the IC50 was 2.2 nM.
As to `CCCC(CCC)C(=O)N[C@@H](CC(=O)OC)C(=O)N1CCC[C@H]1C(=O)N[C@@H](CCCNC(=N)N)C(=O)C(=O)NCCc1ccccc1`, the Ki on human α-thrombin [2] (setting [8]) came out at 0.061 nM. The compound further had an IC50 at human α-thrombin [1] of 0.48 nM.
The compound `CCCC(CCC)C(=O)N[C@@H](CCS(C)(=O)=O)C(=O)N1CCC[C@H]1C(=O)N[C@@H](CCCNC(=N)N)C(=O)C(=O)NCCc1ccccc1` gave an inhibition constant Ki at human α-thrombin [2] (setting [8]) of 0.09 nM. The same compound yielded an IC50 against human α-thrombin [1] of 0.36 nM.
